# Binding of CDR-mutated scFvs to a peptide of the spike HR2 region

Data: MIT Lincoln Laboratory AlphaSeq set, Engelhart et al. 2022, doi:10.1038/s41597-022-01779-4, as distributed in FLAb.

All variants were tested on one target, the spike HR2 peptide PDVDLGDISGINAS (SARS-CoV-2).

Parent: Ab-14, a human scFv built as VH, three GGGGS repeats, VL. Only the CDRs of the heavy chain vary.
VH: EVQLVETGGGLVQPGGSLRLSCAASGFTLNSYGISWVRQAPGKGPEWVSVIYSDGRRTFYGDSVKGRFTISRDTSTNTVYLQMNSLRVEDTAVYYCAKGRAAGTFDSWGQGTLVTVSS
VL: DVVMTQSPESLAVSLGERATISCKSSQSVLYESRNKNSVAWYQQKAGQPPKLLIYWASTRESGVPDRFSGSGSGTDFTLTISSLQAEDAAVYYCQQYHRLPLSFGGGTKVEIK

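Phage display of a naive human antibody library on the peptide gave the parent. The library (AAYL49) carries one to three amino acid substitutions per variant, with no insertions or deletions. The scFvs were displayed on barcoded MATa yeast, the peptide on MATalpha yeast. The frequency of each diploid, read from paired DNA barcodes, reflects how well the two displayed proteins bind. The ratio of observed to expected reads was calibrated, replicate by replicate, on BCL2-family standards whose Kd was known from biolayer interferometry. Mating was done three times.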

Positions count from residue 1 of the parent VH; V50C puts C in place of V. These are single substitutions, in order of position. Each Kd is an estimate from the mating assay, the geometric mean of the replicates in which the pair was seen; lower is stronger. An entry "no signal" has no value in the source: the pair was not observed among the diploids in any replicate. This suggests poor binding but is not conclusive. Parent in this assay: reference entry 4.4 nM, copy in this library 13 µM (one replicate of three). As a blank, each scFv also met three strains without target: over library AAYL49, 15% of these pairings were detected, typically at 11 µM and seldom below 680 nM. For each scFv, signals with the empty controls are counted beside the result.

changes | Kd | detected | signal with controls
V50C | 1.5 µM | 3 of 3 | 5 of 9
V50I | 25 nM | 3 of 3 | 2 of 9
V50Y | 44 µM | 2 of 3 | 5 of 9
V50H | 17 µM | 2 of 3 | 5 of 9
V50E | 1.9 µM | 1 of 3 | 2 of 9
I51C | 5.3 µM | 1 of 3 | 0 of 9
I51N | 110 µM | 3 of 3 | 6 of 9
I51L | 43 nM | 3 of 3 | 0 of 9
I51D | 26 µM | 1 of 3 | 1 of 9
I51P | 4.9 µM | 3 of 3 | 6 of 9
I51S | no signal | 0 of 3 | 0 of 9
I51Q | 52 µM | 3 of 3 | 7 of 9
I51Y | no signal | 0 of 3 | 2 of 9
I51H | 55 µM | 2 of 3 | 2 of 9
I51A | 1.4 µM | 2 of 3 | 0 of 9
I51E | 2.4 µM | 2 of 3 | 4 of 9
I51M | no signal | 0 of 3 | 0 of 9
I51K | no signal | 0 of 3 | 1 of 9
I51G | no signal | 0 of 3 | 0 of 9
I51V | 1.2 µM | 1 of 3 | 0 of 9
I51R | no signal | 0 of 3 | 0 of 9
I51W | 20 µM | 2 of 3 | 1 of 9
I51F | 8.4 µM | 1 of 3 | 0 of 9
Y52G | no signal | 0 of 3 | 2 of 9
Y52L | no signal | 0 of 3 | 0 of 9
Y52M | 1.5 µM | 1 of 3 | 1 of 9
Y52C | no signal | 0 of 3 | 0 of 9
Y52W | no signal | 0 of 3 | 0 of 9
Y52S | 4.4 µM | 1 of 3 | 2 of 9
Y52I | no signal | 0 of 3 | 2 of 9
Y52E | 59 µM | 1 of 3 | 3 of 9
Y52R | 87 µM | 2 of 3 | 3 of 9
Y52N | no signal | 0 of 3 | 3 of 9
Y52V | no signal | 0 of 3 | 0 of 9
Y52T | 600 µM | 1 of 3 | 2 of 9
Y52F | 19 nM | 3 of 3 | 1 of 9
Y52Q | no signal | 0 of 3 | 0 of 9
Y52H | 1.5 µM | 3 of 3 | 3 of 9
Y52P | no signal | 0 of 3 | 0 of 9
Y52A | no signal | 0 of 3 | 2 of 9
Y52K | no signal | 0 of 3 | 1 of 9
Y52D | no signal | 0 of 3 | 2 of 9
S53Q | 310 nM | 3 of 3 | 1 of 9
S53H | 13 nM | 3 of 3 | 1 of 9
S53K | 20 µM | 1 of 3 | 0 of 9
S53G | 320 nM | 2 of 3 | 0 of 9
S53R | no signal | 0 of 3 | 0 of 9
S53W | 180 nM | 3 of 3 | 1 of 9
S53F | 120 nM | 3 of 3 | 2 of 9
S53A | 880 pM | 3 of 3 | 1 of 9
S53D | no signal | 0 of 3 | 0 of 9
S53C | no signal | 0 of 3 | 1 of 9
S53N | 4.7 µM | 1 of 3 | 3 of 9
S53V | 120 nM | 3 of 3 | 1 of 9
S53T | 160 nM | 2 of 3 | 0 of 9
S53Y | 75 nM | 3 of 3 | 1 of 9
S53L | 3.5 µM | 2 of 3 | 2 of 9
S53E | 1.7 mM | 1 of 3 | 4 of 9
S53M | no signal | 0 of 3 | 3 of 9
S53P | 770 nM | 2 of 3 | 0 of 9
D54N | 3.8 µM | 1 of 3 | 1 of 9
D54G | 8.8 µM | 1 of 3 | 0 of 9
D54W | 9.1 µM | 1 of 3 | 1 of 9
D54H | no signal | 0 of 3 | 0 of 9

Excerpt, the final 5 entries:

changes	Kd	detected	signal with controls
S53P	770 nM	2 of 3	0 of 9
D54N	3.8 µM	1 of 3	1 of 9
D54G	8.8 µM	1 of 3	0 of 9
D54W	9.1 µM	1 of 3	1 of 9
D54H	no signal	0 of 3	0 of 9